pKd: −log10 of the molar value. Read-outs that look alike come from different tables or passages of the source.
Columns and labels:
[1] = target: OBn(GGS)2t-FhuA (not stated | E. coli); assay: single-channel electrical recording
[2] = target: OBn(GGS)2t-FhuA (not stated | E. coli); assay: single-channel electrical recording; remark: listed apart in the source

barstar (Bs) (from UniProt P11540 1-90) (natural protein)
1/τoff at 12.63 nM Bs [1]: 0.934 s⁻¹ | 1/τon at 12.63 nM Bs [1]: 0.227 s⁻¹ | koff [1]: 0.95 s⁻¹ | kon [1]: 1.59e+07 M⁻¹ s⁻¹ | release duration τon at 12.63 nM Bs [1]: 4190 ms | release duration τon at 50.5 nM Bs [1]: 1150 ms | pKd [2]: 7.28 | koff [2]: 0.86 s⁻¹ | kon [2]: 1.67e+07 M⁻¹ s⁻¹

From publication PMC6764869
